In this assay the test system is Leishmania donovani. Put plainly: Antileishmanial activity against Leishmania donovani amastigotes infected in BALB/C mouse assessed as reduction in parasite burden in liver tissue at 3.13 mg/kg, po administered once per day for 5 days relative to control. The class given is functional. To be noted: 120 h, read-out: INH.

The values that follow come from ChEMBL document CHEMBL5036301, “Heteroaryl ether analogues of an antileishmanial 7-substituted 2-nitroimidazooxazine lead afford attenuated hERG risk: In vitro and in vivo appraisal” (Eur J Med Chem, 2021).

For the compound `CC1(COc2ccc(OC(F)(F)F)cc2)CCn2cc([N+](=O)[O-])nc2O1` (stereo unspecified), the inhibition in vivo at 3.13 mg/kg was 25%.
